Patent US20070202166A1, “Method for increasing the rate and consistency of bioavailability of supplemental dietary ingredients” (priority 2006, published 2007)

Experiment: Solubility test: powder added to stirred water until saturated, gravity filtered, dry residue on filter paper weighed
Type: physicochemical
Details: for Max Amount Dissolved: 100 mL water, 1 g increments until visually saturated; for Dry Powder On Filter: Whatman 41 filter paper, particle retention 20-25 μm

In the case of “glycine-L-arginine-alpha-ketoisocaproic acid calcium”, the “Max Amount Dissolved” value (Fine-milled powder) is reported as 18 g, the “Dry Powder On Filter” value (Fine-milled powder) is reported as 0.31 g and the “Max Amount Dissolved” value (Regular powder) is reported as 18 g. For the same substance, the “Dry Powder On Filter” value (Regular powder) was 0.42 g and the “Fold Change (unfiltered regular substance divided by unfiltered fine-milled substance)” value (regular versus fine-milled, potential theoretical improvement in bioavailability) was 1.4 fold.
